Test results reported in patent publication US20090318496A1, “PREPARATION CONTAINING FIBRATE AGENT AND PROCESS FOR PRODUCING THE SAME” (ASKA Pharmaceutical Co., Ltd., priority 2006, published 2009).

Test system: lipid and others in blood (TC, TG, PL, NEFA in serum)
Assay: Decrease of lipid in blood by combination use of fenofibrate and pitavastatin in dog (serum TC, TG, PL, NEFA)
Assay type: in vivo
Experimental: Examination of decrease of lipid and others in blood by combination use of fenofibrate (FEN) and pitavastatin (PIT) in dog
Dogs [female and male beagles (YAKUKEN BEAGLE) (11 male dogs and 2 female dogs, 27 to 73 months old)] were used for the examination. Incidentally, each of the dogs was accommodated in a separate bracket cage in a breeding room under the following conditions: a room temperature of 23±3° C., a humidity of 50±10%, a light period of 8:00 to 20:00, and a dark period of 20:00 to 8:00. Moreover, the dog was given 300 g of CD-5M (manufactured by CLEA Japan, Inc.) as a food once a day. Incidentally, the dog was freely allowed to have tap water.
Fenofibrate (FEN) (20 mg/kg) and pitavastatin (PIT) (2 mg/kg) were used as test substances.
Four hours (Day0-4 hr) and 24 hours (Day0-24 hr) after feeding on the day before the administration start day, blood was collected from antebrachial radial veins, and serum and plasma containing sodium citrate (a citric sodium aqueous solution having a concentration of 3.8% by weight) were obtained. Then using the serum, the total cholesterol (TC), the triglyceride (TG), the phospholipid (PL), and the free fatty acid (NEFA) were quantitatively determined by a Toshiba automatic analyzer (manufactured by Toshiba Medical Systems Corporation, TBA-120FR). Moreover, using the sodium citrate-containing plasma, the amount of fibrinogen was quantitatively determined in accordance with the thrombin time method.
Thereafter, FEN alone in a dose of 20 mg/kg was orally administered to a first group of dogs once a day for continuous 7 days (FEN group); PIT alone in a dose of 2 mg/kg was orally administered to a second group of dogs once a day for continuous 7 days (PIT group); and FEN in a dose of 20 mg/kg and PIT in a dose of 2 mg/kg were orally administered to a third group of dogs once a day for continuous 7 days (combination group). Incidentally, feeding was performed immediately after every administration.
Blood was collected after 4 hours of the seventh administration (Day7-4 hr). Using the same manner as in the case of the Day0-4 hr, serum and sodium citrate-containing plasma were obtained, and each of the examinations was performed.
The quantitation results were shown as “an average value±a standard error”. The statistics analysis was performed as follows: each difference between the quantitative value at Day0-4 hr and each at the blood-collected times after the administration was calculated with respect to every dog, and a difference between the average quantitative value of the FEN group or PIT group and that of the combination group was tested by using Student's t test (one-sided test) when homoscedasticity therebetween was identified by F test or by using Wilcoxon Rank Sum test (one-sided test) when homoscedasticity therebetween was not identified by F test. Incidentally, the obtained value from each test was regarded as a significant difference when the difference value was less than 5%.
Incidentally, the relative index of each component was calculated based on the formula: (the average value of the concentration in the blood after the administration)/(the average value of the concentration in the blood before the administration).

[1] = Day 7-4 hr, FEN 20 mg/kg and/or PIT 2 mg/kg orally for 7 days

Structure (SMILES): CC(C)OC(=O)C(C)(C)Oc1ccc(C(=O)c2ccc(Cl)cc2)cc1 [FEN, Fenofibrate]
- ΔTC (Day 7-4 hr minus Day0-4 hr, FEN 20 mg/kg and/or PIT 2 mg/kg orally once a day for 7 days, average ± standard error): -21.4 ± 3.9 mg/dL
- Relative index of NEFA (average concentration after/before administration) [1]: 0.887
- Relative index of PL (average concentration after/before administration) [1]: 0.773
- Relative index of TC (average concentration after/before administration) [1]: 0.827
- Relative index of TG (average concentration after/before administration) [1]: 0.308
